Consider one compound from patent publication US9670244B2, “Oxysterol compounds and the hedgehog pathway” (THE REGENTS OF THE UNIVERSITY OF CALIFORNIA, priority 2006, dated 2017).

The subject of this test is Gli-dependent luciferase reporter. The note with it: 48 hours. How it is done:
Cells were plated into 24-well plates and transfected the next day with Gli-dependent firefly luciferase and Renilla luciferase vectors and where indicated, Smo or Ptch expression vectors. […] Cells were treated for 48 hours prior to assessing luciferase activity using the Dual Luciferase Reporter Assay System (Promega, Madison, Wis.) according to manufacturer's instructions. Experiments were performed in triplicate and error bars indicate one standard deviation.

In the case of `CC1=C2C[C@H]3[C@@H](CC=C4C[C@@H](O)CC[C@@]43C)[C@@H]2CC[C@]12O[C@@H]1C[C@H](C)CN[C@H]1[C@H]2C` [cyclopamine], the “Suppression of Gli-luc reporter activity in Ptch−/− MEFs” value is recorded as “suppressed in a dose-dependent manner”.
